{"source": "patent US20250352600A1", "about": "“DIETARY SUPPLEMENTS FOR BRAIN HEALTH” (Melaleuca, Inc., priority 2024, published 2025)", "key": {"[1]": {"assay": "Low-Caffeine User Clinical Study, Profile of Mood States (POMS) survey", "type": "in vivo, human", "conditions": "total mood disturbance, low-caffeine users, n = 30, Pre", "text": "This study included subjective (POMS and product questions) and objective (CNSVS) tests. […] Composition A; and Composition B. The Profile of Mood States (POMS) survey measured several mood domains including fatigue and vigor (energy) together with tension, anger, depression, self-esteem, and confusion to aggregates as total mood disturbance (TMD). Thirty out of thirty-two participants completed the trial. […] There were 13 male and 17 female participants with an average age of 37.1 years."}, "[2]": {"assay": "Moderate-Caffeine User Follow-Up, Profile of Mood States (POMS) survey", "type": "in vivo, human", "conditions": "moderate-caffeine users", "text": "The study included subjective tests (POMS and product questions) only. […] Composition A; and Composition B. Thirteen participants completed the trial (1 completed ¾ arms due to scheduling interference). […] There were 7 male and 6 female participants with an average age of 39.5 years."}}}
{"smiles": "Cn1c(=O)c2c(ncn2C)n(C)c1=O", "note": "[Caffeine, caffeine]", "values": [{"measurement": "TMD", "setting": "[1]", "result": "−2.86"}, {"measurement": "Anger", "setting": "[2]; n = 12-13, Post", "result": "1.33 ± 3.45"}, {"measurement": "Anger", "setting": "[2]; n = 12-13, Pre", "result": "1.42 ± 2.23"}]}
